According to patent publication US20170112714A1, “METHOD FOR ALLEVIATING OR TREATING ANAPHYLAXIS” (Korea Bio Medical Science Institute, priority 2015, published 2017):

Tested on: histamine
Test: Histamine assay in serum (o-phthalaldehyde spectrofluorometric procedure)
Type: in vivo
Settings: ketotifen in compound 48/80 treated mice

In the case of `CN1CCC(=C2c3ccccc3CC(=O)c3sccc32)CC1` [ketotifen], the histamine is reported as “significantly reduced”.
